Results taken from PubChem BioAssay AID463104 (Sanford-Burnham Center for Chemical Genomics, 2010).
The list shows a part of the results, in another mix than the full data. Active and inactive are the calls of the source.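 Rule for the calls: active = versus positive control, 20 µM dose yields 30% or more activation; inactive = the rest.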

Test: IRE1-XBP1 pathway stimulators – cell-based, CHO-XBP1 luciferase reporter, luminescence, uHTS, primary screen (AID 463104);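 note: 100% = tunicamycin at 10 µg/mL and 0% = DMSO only wells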
Conditions: IRE1-XBP1 UPR activation, at 20 µM, stronger effect = higher value, percent of tunicamycin response, DMSO as zero
Method in brief: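 Material – CHO cell line with stable XBP1 luciferase reporter · Buffer or medium – F12 plus 10% FBS · Compound – single point, 20 µM final compound, 1% DMSO · Schedule – 16-18 h cell attachment at 37 °C, then 6 h compound exposure · Signal – Steady-Glo luminescence read · Benchmarks – high control tunicamycin 10 µg/mL final, low control DMSO vehicle only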
With `O=C(OC1CN2CCC1CC2)c1ccccc1` (stereo not given) the activation was inactive: -3.89%.
For `CCC(=O)N1C2C3N(C(=O)CC)C1C1N(C(=O)CC)C(C(N1C(=O)CC)N3C(=O)CC)N2C(=O)CC`, the activation was inactive: -4.67%.
With `COC(=O)c1cc2c(s1)N=C(c1ccccc1)N(C)P2(=O)N1CCOCC1` (stereo not given) the activation was inactive: -5.5%.
For `CC(=O)NC(SC(=S)N(CC(C)C)CC(C)C)C(Cl)(Cl)Cl` (stereo not given), the activation was inactive: 4.03%.
In the case of `Cc1ccc(OP(=O)(Nc2ccccn2)Oc2ccc(C)cc2)cc1`, the activation was inactive: 0.35%.
In the case of `Cc1ccccc1OP(=O)(Nc1ccccn1)Oc1ccccc1C`, the activation was inactive: -5.02%.
With `CC(NC(=O)COC(=O)C(O)(c1ccccc1)c1ccccc1)c1ccccc1` (stereo not given) the activation was inactive: -1.71%.
For `CN(C)C(=O)Oc1noc2ccccc12`, the activation was inactive: -0.98%.
With `O=P(Nc1nc2ccc(Cl)cc2s1)(c1ccccc1)c1ccccc1` the activation was inactive: 0.65%.
For `O=C(O)c1ccccc1[As](=O)(O)O`, the activation was inactive: -4.32%.
For `CC(=O)Nc1ccc([As](=O)(O)O)cc1`, the activation was inactive: 0.49%.
With `CCOP(=O)(Nc1ccccc1)OCC` the activation was inactive: -0.28%.
In the case of `Cc1cc(SC(NC(=O)c2ccc(F)cc2)C(Cl)(Cl)Cl)ncn1` (stereo not given), the activation was inactive: -1.09%.
For `Cc1ccc(NP(=O)(Oc2ccccc2F)Oc2ccccc2F)nc1`, the activation was inactive: 2.85%.
With `CN(C(=O)Cc1ccc(Cl)c(Cl)c1)[C@H]1CCCC[C@@H]1N1CCCC1` the activation was inactive: -6.19%.
With `O=[N+]([O-])c1cc([N+](=O)[O-])c(CCN2CCOCC2)c([N+](=O)[O-])c1` the activation was inactive: -8.49%.
For `CCN(N=Nc1nonc1N)c1nonc1N`, the activation was inactive: -1.58%.
For `CN(C(=O)Cc1ccc(Cl)c(Cl)c1)[C@H]1CCCC[C@H]1N1CCCC1`, the activation was inactive: -8.87%.
For `Cc1ccc(N/C(=N/P(=O)(N2CCOCC2)N2CCOCC2)N2CCOCC2)cc1`, the activation was inactive: -8%.
In the case of `NC(=O)c1cc([N+](=O)[O-])cc([N+](=O)[O-])c1N`, the activation was inactive: -4.54%.
For `Clc1ccc(Cl)c(NC2=NCC(CBr)S2)c1` (stereo not given), the activation was inactive: -3.36%.
For `CN1CCCC(OC(=O)C(c2ccccc2)c2ccccc2)C1` (stereo not given), the activation was inactive: -0.88%.
In the case of `COc1ccccc1OP(=O)(Nc1ccc(C)cn1)Oc1ccccc1OC`, the activation was inactive: -4.98%.
For `Cc1ccc(OP(=O)(Nc2nccs2)Oc2ccc(C)cc2)cc1`, the activation was inactive: -1.28%.
In the case of `Oc1ccccc1CNc1ccccn1`, the activation was inactive: 0.32%.
For `Cc1c2non([O-])c-2c(C)[n+](=O)[n+]1[O-]`, the activation was inactive: -3.21%.
With `O=C(NC(Sc1ccncn1)C(Cl)(Cl)Cl)c1ccccc1` (stereo not given) the activation was inactive: 2.57%.
In the case of `CC(C)CC(=O)NC(Sc1ccc(Cl)cc1)C(Cl)(Cl)Cl` (stereo not given), the activation was inactive: 1.9%.
With `Nc1cc(N)c2nonc2c1[N+](=O)[O-]` the activation was inactive: -2.89%.
With `COc1ccc(C2=NCC(CBr)S2)cc1` (stereo not given) the activation was inactive: -1.05%.
With `Cc1ccc(NP(=O)(Oc2ccccc2)Oc2ccccc2)nc1` the activation was inactive: -0.57%.
With `CCc1nc2c(n1)c1c(non1O)c1c2no[n+]1[O-]` the activation was inactive: -8.43%.
For `O=[N+]([O-])c1cc([N+](=O)[O-])c(CCNc2ccccc2)c([N+](=O)[O-])c1`, the activation was inactive: -3.2%.
For `O=[N+]([O-])c1cccc2n[nH]nc12`, the activation was inactive: -0.25%.
In the case of `CC(=O)N1C2C3N(C(C)=O)C1C1N(C(C)=O)C(C(N1C(C)=O)N3C(C)=O)N2C(C)=O`, the activation was inactive: -3.42%.
In the case of `CCN(/C(=N/P(=O)(N1CCOCC1)N1CCOCC1)N1CCOCC1)c1ccc(OC)cc1`, the activation was inactive: 0.67%.
For `Nc1ccc([As](=O)(O)c2ccc(N)cc2)cc1`, the activation was inactive: -1.86%.
With `C[N+]1=C2C=CC=CC=C2SC12C([N+](=O)[O-])=CC([N+](=O)[O-])=C[C-]2[N+](=O)[O-]` (stereo not given) the activation was inactive: -1.61%.
For `CC1CCN(C(=O)Oc2c(Cl)cc(Cl)c3cccnc23)CC1`, the activation was inactive: -0.85%.
For `CC(C)=N/N=C(\N)N[N+](=O)[O-]`, the activation was inactive: -2.59%.
For `CN(C)C(=O)OCCc1n(C)cc[n+]1C`, the activation was inactive: -2.75%.
In the case of `O=C(Nc1cc([As](=O)(O)O)ccc1O)c1ccccc1`, the activation was inactive: -6.85%.
In the case of `O=[N+]([O-])c1ncn(CCn2ncnc2[N+](=O)[O-])n1`, the activation was inactive: 11.3%.
In the case of `CC(C)(C)C(=O)NC(Sc1ccncn1)C(Cl)(Cl)Cl` (stereo not given), the activation was inactive: -3.55%.
For `O=[N+]([O-])c1cccc(NC2=NCC(CBr)S2)c1` (stereo not given), the activation was inactive: 0.71%.
